{"source": "patent US20210355421A1", "about": "“DEVICES AND METHODS FOR PRODUCTION OF CELL AGGREGATES” (priority 2007, published 2021)", "test_system": "hESC", "assay": "aggregate formation from hESC cultured on Matrigel after BMP pre-differentiation", "format": "cell-based, human", "details": "25 ng/mL BMP2 pre-differentiation, control population did not form aggregates", "experimental": "• 1. […] The applicants have determined several ways in which this problem can be resolved (alone or in combination): • a) for 48 hours prior to harvesting, replace growth medium with DM (above); or • b) for 48 hours prior to harvesting, replace growth medium with X-Vivo10+25 ng/mL BMP2; or • c) when passaging cells, keep initial colony sizes small and consistent, decrease initial seeding density, and harvest the culture well before confluency is reached or • d) form aggregates in the presence of 10 μM Y27632 • If cells are excessively pre-differentiated using techniques a-c, highly coherent aggregates are formed however they are then resistant to release from the wells in which they are aggregated, and their subsequent differentiation trajectory may also be affected. The precise degree of pre-differentiation that is optimal will vary with the cell line in question, exact maintenance techniques, etc. If EB coherence is still insufficient after treatment as above, pre-differentiation can be started earlier (i.e the duration increased) or (if using BMPs), BMP concentration can be increased. If highly coherent aggregates result but are not efficiently recovered from the plate in which they are formed, the duration of pre-differentiation can be reduced, or (if using BMP2) the concentration of BMP2 can be reduced. • 2. […]"}
{"substance": "BMP2: Bone Morphogenetic Protein-2, growth factor used for pre-differentiation (R&D Systems)", "values": [{"measurement": "stable aggregate formation after BMP2 pre-differentiation", "result": "Aggregates formed from the pre-differentiated population"}]}
